Experimental data reported in paper PMC4979564 (JCI insight, 2016).

The chains behind the UniProt entries cited, without tags or fusion partners.
UniProt P47746, whole entry: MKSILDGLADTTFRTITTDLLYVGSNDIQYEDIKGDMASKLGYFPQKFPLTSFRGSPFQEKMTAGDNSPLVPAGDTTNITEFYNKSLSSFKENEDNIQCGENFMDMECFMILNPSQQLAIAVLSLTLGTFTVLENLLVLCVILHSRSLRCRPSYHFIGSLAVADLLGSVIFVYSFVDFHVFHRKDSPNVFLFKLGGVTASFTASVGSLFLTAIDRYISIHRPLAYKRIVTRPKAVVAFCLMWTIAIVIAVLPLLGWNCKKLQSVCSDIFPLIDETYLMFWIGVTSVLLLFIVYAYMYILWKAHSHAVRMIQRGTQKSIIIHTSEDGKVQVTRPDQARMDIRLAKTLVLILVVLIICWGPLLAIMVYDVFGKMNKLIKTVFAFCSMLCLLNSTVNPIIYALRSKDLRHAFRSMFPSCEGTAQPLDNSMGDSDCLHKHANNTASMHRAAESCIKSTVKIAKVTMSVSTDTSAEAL

Biological target: CB1R (Mus musculus, UniProt P47746)
Experiment: Brain CB1R occupancy by CB1R PET
Format: in vivo
Details: 3 mg/kg

displacement of a CB1R PET ligand in brain: significant, marked displacement
SMILES: Cc1c(C(=O)NN2CCCCC2)nn(-c2ccc(Cl)cc2Cl)c1-c1ccc(Cl)cc1 [rimonabant, reference compound]
